# Results published in PubChem BioAssay AID878 (University of Pittsburgh Molecular Library Screening Center, 2007).
# Only a part is listed here, and it is no random draw. Activity calls are given as the source filed them.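 The calls were made as follows: active = activation of at least 50% relative to the plate's high and low controls in the primary single-dose screen; inactive = activation below 50%.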
# Assay: compounds producing H2O2 with reducing agent – biochemical, NIH compound library profiling, artefact control for MLSCN library redox annotation, primary screen (AID 878);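 also: compound incubated with DTT at 0.8 mM final as the reducing agent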
# Conditions: DTT-dependent redox cycling H2O2, phenol red/HRP absorbance; at 10 µM; stronger effect = higher value; 100% = 100 µM peroxide control, 0% = buffer
row,Structure (SMILES),activation
1,O=[N+]([O-])c1cc([N+](=O)[O-])c(-n2nnc3ccccc32)c([N+](=O)[O-])c1,inactive: -0.92%
2,Cc1nc2ccc3ccccc3c2s1.O=[N+]([O-])c1cc([N+](=O)[O-])c(O)c([N+](=O)[O-])c1,inactive: 2.04%
3,CCCOc1ccc(NP(C)(=O)Oc2ccc(Cl)cc2)cc1 (stereo not drawn),inactive: -0.21%
4,CP(=O)(Nc1ccc(SC(F)(F)F)cc1)Oc1ccccc1 (stereo not drawn),inactive: -0.45%
5,CN1CCCCC1COC(=O)C1(O)c2ccccc2CCc2ccccc21 (stereo not drawn),inactive: -0.08%
6,COc1ccccc1OP(C)(=O)Nc1c(C)cccc1C (stereo not drawn),inactive: 2.4%
7,CC1=NCCc2c1[nH]c1ccccc21.O=[N+]([O-])c1cc([N+](=O)[O-])c(O)c([N+](=O)[O-])c1,inactive: 0.17%
8,CCOC(=O)c1ccc(NP(C)(=O)Oc2cc(C)cc(C)c2)cc1 (stereo not drawn),inactive: -0.01%
9,Cc1cc(C)cc(OP(C)(=O)Nc2ccc(C)cc2C)c1 (stereo not drawn),inactive: 0.09%
10,Cc1ccc(C)c(NP(C)(=O)Oc2ccccc2)c1 (stereo not drawn),inactive: 2.23%
11,Cc1cc(C)cc(OP(C)(=O)Nc2ccccn2)c1 (stereo not drawn),inactive: -0.54%
12,CP(=O)(Nc1cccc(Br)c1)Oc1ccccc1 (stereo not drawn),inactive: -2.11%
13,CCN(CC)CCCOC(=O)C(O)(c1ccccc1)c1ccccc1,inactive: -1.56%
14,O=[N+]([O-])c1ccc2c(c1)C=Nc1ccccc1O2,inactive: -1.42%
15,Cc1cccc(C)c1OP(C)(N)=O (stereo not drawn),inactive: -1.99%
16,CC(C)(C)c1ccc(OP(C)(=O)Nc2ccc(SC(F)(F)F)cc2)cc1 (stereo not drawn),inactive: -0.24%
17,Cc1cc(C)cc(OP(C)(N)=O)c1 (stereo not drawn),inactive: -2.31%
18,COc1ccc(OP(C)(=O)Nc2cccc(F)c2)cc1 (stereo not drawn),inactive: 0.12%
19,COc1ccccc1OP(C)(=O)Nc1cc(Cl)ccc1C (stereo not drawn),inactive: -0.27%
20,Cc1ccc(NP(C)(=O)Oc2ccccc2)c(C)c1 (stereo not drawn),inactive: 0.76%
21,COc1ccccc1OP(C)(=O)Nc1ccc(C)cc1 (stereo not drawn),inactive: -2.05%
22,CCOC(=O)c1ccc(NP(C)(=O)Oc2ccccc2)cc1 (stereo not drawn),inactive: -0.67%
23,CP(=O)(Nc1ccccc1Br)Oc1ccccc1 (stereo not drawn),inactive: -0.84%
24,COc1ccccc1OP(C)(=O)Nc1ccccc1 (stereo not drawn),inactive: -0.41%
25,CP(=S)(Nn1cnnc1)Oc1ccccc1 (stereo not drawn),inactive: -0.44%
26,Cc1cc(C)cc(OP(C)(=O)Nc2ccc(SC(F)(F)F)cc2)c1 (stereo not drawn),inactive: -0.06%
27,CP(=O)(NC(=O)Nc1ccccc1)Oc1ccccc1 (stereo not drawn),inactive: -0.07%
28,CP(=O)(Oc1ccccc1)OC(c1ccccc1)C(F)(F)F (stereo not drawn),inactive: -1.97%
